Laboratory results reported in article PMC10880909, “Correction: A high-throughput effector screen identifies a novel small molecule scaffold for inhibition of ten-eleven translocation dioxygenase 2” (RSC Medicinal Chemistry, 2024).

Molecular target: hTET2 (Homo sapiens, UniProt Q6N021)
Experiment: MALDI-based inhibition assay of hTET2
Details: additional SAR / re-synthesis

Structure (SMILES): O=C(O)c1cc2ccccc2cn1 [Compound 20, isoquinoline-3-carboxylic acid]
- hTET2 inhibition, result in words: micromolar IC50 values
